The results in this text go back to US9464076B2, “Benzothiophene derivative” (Daiichi Sankyo Company, Limited, priority 2013, dated 2016).

Sequences of proteins named here, by UniProt entry; tags and fusion partners are left off. Residues count along the entry.
UniProt Q9Y233, 267-1055: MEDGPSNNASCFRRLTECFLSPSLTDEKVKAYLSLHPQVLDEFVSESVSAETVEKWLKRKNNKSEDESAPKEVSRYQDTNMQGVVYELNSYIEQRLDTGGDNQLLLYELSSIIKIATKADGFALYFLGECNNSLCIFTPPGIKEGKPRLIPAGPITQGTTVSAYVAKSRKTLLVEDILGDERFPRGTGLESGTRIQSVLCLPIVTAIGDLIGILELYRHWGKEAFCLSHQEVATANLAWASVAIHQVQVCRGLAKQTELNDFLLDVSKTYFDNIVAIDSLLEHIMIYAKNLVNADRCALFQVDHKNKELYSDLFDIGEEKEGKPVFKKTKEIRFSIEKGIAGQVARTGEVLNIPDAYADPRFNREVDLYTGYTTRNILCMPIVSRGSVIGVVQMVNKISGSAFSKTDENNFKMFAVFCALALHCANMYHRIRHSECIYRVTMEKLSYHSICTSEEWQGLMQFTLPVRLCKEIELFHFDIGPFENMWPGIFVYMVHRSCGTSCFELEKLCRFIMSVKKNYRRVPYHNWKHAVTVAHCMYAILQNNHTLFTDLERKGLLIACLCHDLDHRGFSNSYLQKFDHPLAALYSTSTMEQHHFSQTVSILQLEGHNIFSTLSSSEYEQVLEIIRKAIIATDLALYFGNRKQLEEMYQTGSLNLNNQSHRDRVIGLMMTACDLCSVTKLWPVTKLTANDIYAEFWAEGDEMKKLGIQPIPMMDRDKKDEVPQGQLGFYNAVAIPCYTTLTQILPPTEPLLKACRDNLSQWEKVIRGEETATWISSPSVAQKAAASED

Structures can show the parent of a compound that is named as a salt. Where two headings read alike, the source gives them in different places.

One experiment deals with PDE10A (Homo sapiens (Human), UniProt Q9Y233). Kind of experiment: Measurement of PDE10A inhibitory activity-2 (PDE10A fraction prepared from MOLT-4 cells). The class given is biochemical. The procedure:
A human acute lymphoblastic lymphoma T cell line MOLT-4 (which can be purchased under ATCC No. CRL-1582 from ATCC) was cultured in an RPMI1640 medium containing 10% fetal bovine serum to obtain 5×10^8 MOLT-4 cells. The cells were recovered by centrifugation and suspended in 10 ml of buffer solution A (25 mM Tris-HCl, 5 mM 2-mercaptoethanol, 2 mM benzamidine, 2 mM EDTA, and 0.1 mM 4-(2-aminoethyl)benzenesulfonyl hydrochloride, pH 7.5). The cells were homogenized using a Polytron homogenizer and centrifuged (4° C., 25,000 g, 10 minutes). Then, the supernatant was further ultracentrifuged (4° C., 100,000 g, 60 minutes). The obtained supernatant was filtered through a 0.2 μm filter to obtain a soluble fraction.
HiTrap Q HP column (5 ml×2, GE Healthcare Japan Corp.) equilibrated with buffer solution A was charged with the obtained soluble fraction. Phosphodiesterase was eluted with 300 ml of buffer solution A containing a linear gradient solution of 0 to 0.8 M NaCl to recover sixty 5-ml fractions. Each fraction was tested for cAMP-metabolizing phosphodiesterase activity.
On the other hand, total RNA was prepared from Jurkat cells, one type of human T cell, and similarly subjected to RT-PCR. […] Eur J Biochem. 1999, 266 (3), 1118-2 has reported that PDE10A from the rat striatum and testis is eluted as an active peak centered around 250 mM NaCl.
For these reasons, this fraction was used as a solution for the evaluation of PDE10A inhibitory activity. The obtained solution was used to calculate the inhibitory activity (IC50) of a test compound in the same way as in the aforementioned test.

Experiment [1] has as its target PDE10A (H-PDE10A2, Human Phosphodiesterase 10A2) (Homo sapiens (Human), UniProt Q9Y233). Kind of experiment: Measurement of PDE10A inhibitory activity-1 (3H-cAMP, recombinant enzyme). The experiment is classed as biochemical. To be noted: H-PDE10A2, 64 nM cAMP, 25° C., 2 hours. The procedure: To a solution containing 20 mM Tris-HCl (pH 7.5), 1 mM MgCl2, 100 μM EDTA, 330 μg/ml bovine serum albumin, 50 kU/ml 5′-nucleotidase, 0.1 μCi ^3H-cAMP (64 nM cAMP), and PDE10A (H-PDE10A2, Human Phosphodiesterase 10A2, Scottish Biomedical), a test compound was added, and the mixture was reacted at 25° C. for 2 hours. To the reaction solution, QAE-Sephadex (17-0190-01, GE Healthcare Japan Corp.) suspended in 10 mM HEPES-Na (pH 7.0) (hereinafter, also referred to as a “QAE-Sephadex suspension”) was added, and the mixture was shaken for 1 minute and left standing for 5 minutes to obtain a supernatant. To the supernatant, a QAE-Sephadex suspension was further added, and the mixture was shaken for 1 minute and left standing for 5 minutes. Then, the obtained supernatant was transferred to LumaPlate (PerkinElmer, Inc.) and assayed using a radiation counter (TopCount NXT, PerkinElmer, Inc.).
The value of the sample reacted without the addition of both a test compound and PDE10A was defined as 0%, and the value of the sample reacted in the presence of PDE10A without the addition of a test compound was defined as 100%. […] As is evident, the compound of the present invention has PDE10A inhibitory activity.

As to `COCc1ccc(C(C)=O)c2sc(C(=O)Nc3ccc4c(CO)cccc4n3)c(C)c12.Cl` [Example 77, 7-Acetyl-N-(5-(hydroxymethyl)quinolin-2-yl)-4-(methoxymethyl)-3-methylbenzo[b]thiophene-2-carboxamide hydrochloride], the IC50 (usually the concentration at which inhibition is half-maximal) at PDE10A (PDE10A fraction from MOLT-4 cells (peak around 250 mM NaCl), read-out: IC50) stood at 0.82 nM; in experiment [1] (hydrochloride), 3.1 nM. Regarding `COCc1ccc(C(C)=O)c2sc(C(=O)Nc3ccc4c(CO)cccc4n3)c(C)c12` [Example 78, 7-Acetyl-N-(5-(hydroxymethyl)quinolin-2-yl)-4-(methoxymethyl)-3-methylbenzo[b]thiophene-2-carboxamide methanesulfonate], the concentration for half-maximal inhibition (IC50) in experiment [1] (methanesulfonate) turned out to be 1.7 nM. In the case of `COCc1ccc(C(C)=O)c2sc(C(=O)Nc3ccc4c(CO)cccc4n3)c(C)c12` [Example 80, 7-Acetyl-N-(5-(hydroxymethyl)quinolin-2-yl)-4-(methoxymethyl)-3-methylbenzo[b]thiophene-2-carboxamide hydrobromide], the IC50 in experiment [1] (hydrobromide) was found to be 1.1 nM. `COCc1ccc(C(C)=O)c2sc(C(=O)Nc3ccc4c(CO)cccc4n3)c(C)c12.Cc1ccc(S(=O)(=O)O)cc1` [Example 81, 7-Acetyl-N-(5-(hydroxymethyl)quinolin-2-yl)-4-(methoxymethyl)-3-methylbenzo[b]thiophene-2-carboxamide p-toluenesulfonate]: the IC50 in experiment [1] (p-toluenesulfonate) turned out to be 1.9 nM. Turning to `Cl.[2H]C([2H])(O)c1cccc2nc(NC(=O)c3sc4c(C(C)=O)ccc(COC)c4c3C)ccc12` [Example 119, 7-Acetyl-N-(5-(hydroxy(^2H2)methyl)quinolin-2-yl)-4-(methoxymethyl)-3-methylbenzo[b]thiophene-2-carboxamide hydrochloride], the concentration for half-maximal inhibition (IC50) at PDE10A came out at 0.34 nM. For `[2H]C([2H])([2H])OCc1ccc(C(C)=O)c2sc(C(=O)Nc3ccc4c(CO)cccc4n3)c(C)c12` [Example 120, 7-Acetyl-N-(5-(hydroxymethyl)quinolin-2-yl)-4-((^2H3)methoxymethyl)-3-methylbenzo[b]thiophene-2-carboxamide], on PDE10A, the IC50 was 0.64 nM.
